Measured affinities in a library of Ab-91 heavy chain variants

Values reported by Engelhart et al. 2022, doi:10.1038/s41597-022-01779-4 (FLAb copy).

Binding partner: SARS-CoV-2 spike HR2 peptide, sequence PDVDLGDISGINAS.

Ab-91 is the parent antibody, in scFv form: VL, then three GGGGS repeats, then VH. The light chain is unchanged in all variants.
VL: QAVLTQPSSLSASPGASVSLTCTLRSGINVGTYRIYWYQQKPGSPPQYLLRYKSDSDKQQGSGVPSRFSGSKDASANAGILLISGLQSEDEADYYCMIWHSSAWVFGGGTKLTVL
VH: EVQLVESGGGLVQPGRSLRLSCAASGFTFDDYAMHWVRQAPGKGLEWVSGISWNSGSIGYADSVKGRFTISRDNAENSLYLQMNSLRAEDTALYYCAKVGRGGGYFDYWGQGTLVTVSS

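The library (AAYL51) carries one to three amino acid substitutions per variant, with no insertions or deletions. Affinity was read by AlphaSeq, a pooled yeast mating assay with surface-displayed partners. After mating in shaken culture at 30 °C for 16 h, diploids were selected and their barcode pairs sequenced. A regression on co-assayed BCL2-family reference pairs converts the normalised counts of each replicate to an apparent Kd. Mating was done three times.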

The parent's heavy chain CDRs are GFTFDDYAMH, GISWNSGSIGYADSVK, VGRGGGYFDY; each variant's own CDRs replace them letter for letter. Values are log10 of the apparent Kd in nM; lower means stronger binding. "n.d." marks a missing value. The strain was present, yet no cells mated with the target were sequenced in that replicate, which points to weak or no binding. For reference, the parent read 1.86 as the reference entry and 0.88 as a member of this library. Nonspecific signal, from three strains lacking the peptide, appeared in 21% of pairings of library AAYL51, centred on 4.54 (5% of these signals below 3.26); values are not corrected for it. The control count says in how many pairings with the empty strains this scFv gave a signal, with their mean in brackets.

CDR-H1	CDR-H2	CDR-H3	replicates, log10 nM	signal with controls
GFTFDHYAMH	GISWNSGSIGRADSMK	VGRGGGYFDY	n.d. n.d. 3.69	1/9 (5.05)
AFTFDDYAMH	GISWNEGSIGYADSVK	CGRGGGYFDY	n.d. n.d. n.d.	0/9
GFTTDDYAMH	GISWNSSSIGYADSVK	VGRGGHYFDY	n.d. n.d. n.d.	0/9
GFTFDDYAMH	GICWNSGWIGYADSVK	VGRGGKYFDY	n.d. n.d. n.d.	0/9
GGTFDDYAMH	GISWNSGSIGRADSVK	VGRGGGYFEY	n.d. n.d. n.d.	0/9
GFTFDDYAMH	GISWNSGSIFYEDSVK	VGQGGGYFDY	5.45 4.96 5.71	6/9 (4.91)
GFTFDDYAMH	GISWNSISIGYADSVK	VGRCGGYFDR	4.49 5.92 2.79	3/9 (4.70)
GFTFDDYAMH	GISWNSGSSGYADSYK	VGRGGGYFDK	2.43 2.88 3.45	2/9 (4.11)
GFTFDDYAKH	GISWNSGSIGYADSVK	GGRGGGYFDY	5.55 5.56 n.d.	2/9 (4.52)
GFTFDDYAMH	GIMHNSCSIGYADSVK	VGRGGGYFDY	2.92 n.d. n.d.	1/9 (2.95)
GFTFDDYAMH	GIRWNSGSIIYADSVK	VGRGMGYFDY	2.81 n.d. n.d.	1/9 (3.25)
GFTFDDYAMH	TISWNSGSIGYALSVK	VGRGGGYFAY	n.d. n.d. n.d.	0/9
GFTFDDYASH	GISWNSGSIDYADSVK	QGRGGGYFDY	5.50 4.80 n.d.	3/9 (4.10)
GFTFDDYHMH	GISWKSGSIGYADSVK	VGRGGGYFDI	n.d. 4.72 n.d.	1/9 (5.75)
GKTMDDYAMH	GISWNSGSIGYADSVC	VGRGGGYFDY	n.d. n.d. n.d.	1/9 (4.33)
PFTFDDGAMH	GISWNSGSIGYAGSVK	VGRGGGYFDY	4.16 n.d. n.d.	1/9 (5.53)
GFTMDDYAMH	GISWNSGSNGYADSVK	VGRGGGYFHY	n.d. n.d. 4.30	4/9 (4.10)
GFTFDDYMMH	GVSWNSGSIGYADSVK	VGRGGGYFDY	n.d. n.d. 4.67	1/9 (3.77)
GFTPDDYAMH	GISWNSGSIGYAKSVK	VGRGGGYFDQ	3.18 3.05 4.00	4/9 (4.81)
GFKFDDYAMH	GISWNSGSIGYADSNK	AGRGGGYFDY	3.67 n.d. n.d.	0/9
WFTFDDYAMH	GLSWNSGSIGYADSVY	VGRGGGYFDY	4.17 4.93 n.d.	0/9
GFKFDDYAMH	GISWNSGSIGYACSVK	VGRGGGYFEY	3.17 2.45 n.d.	0/9
GFTFDMYPMH	GISWNSGSIGYADSVK	KGRGGGYFDY	1.02 1.31 0.72	2/9 (4.67)
GFTFDDYAMH	GILWNSGSIGYADSVK	QGRGGGYFDI	3.65 n.d. n.d.	1/9 (3.69)
GPTFDDYAMH	GTSWNSGSIGYADSVK	VGRGGGYFDY	n.d. n.d. n.d.	3/9 (3.94)
GFTFDDWACH	GISWNSGSIGYADKVK	VGRGGGYFDY	n.d. n.d. n.d.	0/9
GFTFDDYAMH	GISWNSGSINYADAVK	VGRGGGYFDY	n.d. n.d. n.d.	0/9
GFTFDDYAMH	GISWNSGSIGYADSVS	VKRGGGYRDY	n.d. n.d. n.d.	1/9 (4.24)
GFTFDDYAMH	RISWNSGSIGYADSHK	VHRGGGYFDY	n.d. n.d. n.d.	0/9
GFTIDDYAMH	GISWNSGSIGIADSVG	VGRGGGYFDY	4.21 3.42 3.49	1/9 (4.18)
GFTFDDYAMH	GIKWNSGSIGYYDSVK	VTRGGGYFDY	n.d. n.d. n.d.	0/9
GFTFDDYAMH	GISWNSGSIGYAISVK	VGRGGGHFDM	5.74 5.60 4.78	3/9 (5.03)
GFTQDDYAMH	GIRWNSGSIGYADSVK	VQRGGGYFDY	4.79 n.d. n.d.	0/9
GFTFDDSAMH	GTSWNSGSIGYADSVK	VGRGGGYKDY	5.13 n.d. n.d.	1/9 (3.43)
GFTFDDHAMH	GISWNSGSIGYDDSVK	VGRGGGYFDY	n.d. n.d. n.d.	2/9 (2.89)
TFTFDDYAMH	GIWWNSGSIGYADSVK	VGRGGGYFVY	4.23 5.36 n.d.	5/9 (4.36)

3 of these entries, quoted again:

CDR-H1	CDR-H2	CDR-H3	replicates, log10 nM	signal with controls
GFTFDDYAMH	GILWNSGSIGYADSVK	QGRGGGYFDI	3.65 n.d. n.d.	1/9 (3.69)
GFTFDHYAMH	GISWNSGSIGRADSMK	VGRGGGYFDY	n.d. n.d. 3.69	1/9 (5.05)
WFTFDDYAMH	GLSWNSGSIGYADSVY	VGRGGGYFDY	4.17 4.93 n.d.	0/9